Test results as given in ChEMBL document CHEMBL5726717, “Heterocyclic modulators of lipid synthesis and combinations thereof” (2019).

Test: cells
Assay type: cell-based
Conditions: Huh-7

Structure (SMILES): Cc1nc(C)c(-c2cc(C(=O)N3CCC(c4ccc(Cl)cc4)CC3)ccc2C)[nH]1
- EC50: 0.115 µM
